Source: US6350768B1 (Aventis Pharma S.A., priority 1999, dated 2002)

System: purified rat motoneurons
Conditions: BDNF 1 ng/ml

With `Nc1nc2ccc(OC(F)(F)F)cc2s1` [Riluzole, 2-amino-6-trifluoromethoxybenzothiazole] the “Number of motoneurons, Mean (± SEM)” value (mean of 8 measurements, 4 wells, ALS serum 0.1%, Riluzole 3 × 15^−5 M alone) was 7.5 and the “survival of the motoneurons” value (medium treated with riluzole alone, ALS serum) was 19%.
